Measured values reported in PMC8002179.

B1: wild type ACKR3 fused with Renilla luciferase (RLuc) on the C-terminal tail [human] / β-arrestin1 tagged with the eYFP fluorescent protein [not stated] (parent)
chain 1: MGDKGTRVFKKASPNGKLTVYLGKRDFVDHIDLVDPVDGVVLVDPEYLKERRVYVTLTCAFRYGREDLDVLGLTFRKDLFVANVQSFPPAPEDKKPLTRLQERLIKKLGEHAYPFTFEIPPNLPCSVTLQPGPEDTGKACGVDYEVKAFCAENLEEKIHKRNSVRLVIRKVQYAPERPGPQPTAETTRQFLMSDKPLHLEASLDKEIYYHGEPISVNVHVTNNTNKTVKKIKISVRQYADICLFNTAQYKCPVAMEEADDTVAPSSTFCKVYTLTPFLANNREKRGLALDGKLKHEDTNLASSTLLREGANREILGIIVSYKVKVKLVVSRGGLLGDLASSDVAVELPFTLMHPKPKEEPPHREVPENETPVDTNLIELDTNDDDIVFEDFARQRLKGMKDDKEEEEDGTGSPQLNNR
chain 2: MDLHLFDYSEPGNFSDISWPCNSSDCIVVDTVMCPNMPNKSVLLYTLSFIYIFIFVIGMIANSVVVWVNIQAKTTGYDTHCYILNLAIADLWVVLTIPVWVVSLVQHNQWPMGELTCKVTHLIFSINLFGSIFFLTCMSVDRYLSITYFTNTPSSRKKMVRRVVCILVWLLAFCVSLPDTYYLKTVTSASNNETYCRSFYPEHSIKEWLIGMELVSVVLGFAVPFSIIAVFYFLLARAISASSDQEKHSSRKIIFSYVVVFLVCWLPYHVAVLLDIFSILHYIPFTCRLEHALFTALHVTQCLSLVHCCVNPVLYSFINRNYRYELMKAFIFKYSAKTGLTKLIDASRVSETEYSALEQSTK

Variants of: B1
Assay: BRET
Conditions: CXCL12 (100 nM), HEK293T cells, read at last time point (~56 min), read off a plot

Variant | response [fold vehicle]
chain 2 MDLHLFDYSEPGNFSDISWPCNSSDCIVVDTVMCPNMPNKSVLLYTLSFIYIFIFVIGMIANSVVVWVNIQAKTTGYDTHCYILNLAIADLWVVLTIPVWVVSLVQHNQWPMGELTCKVTHLIFSINLFGSIFFLTCMSVDRYLSITYFTNTPSSRKKMVRRVVCILVWLLAFCVSLPDTYYLKTVTSASNNETYCRSFYPEHSIKEWLIGMELVSVVLGFAVPFSIIAVFYFLLARAISASSDQEKHSSRKIIFSYVVVFLVCWLPYHVAVLLDIFSILHYIPFTCRLEHALFTALHVTQCLSLVHCCVNPVLYSFINRNYRYELMKAFIFKYSAKTGLTKLIDASRVAEAEYAALEQSTK [chain 2 S350A T352A S355A] | 1
chain 2 MDLHLFDYSEPGNFSDISWPCNSSDCIVVDTVMCPNMPNKSVLLYTLSFIYIFIFVIGMIANSVVVWVNIQAKTTGYDTHCYILNLAIADLWVVLTIPVWVVSLVQHNQWPMGELTCKVTHLIFSINLFGSIFFLTCMSVDRYLSITYFTNTPSSRKKMVRRVVCILVWLLAFCVSLPDTYYLKTVTSASNNETYCRSFYPEHSIKEWLIGMELVSVVLGFAVPFSIIAVFYFLLARAISASSDQEKHSSRKIIFSYVVVFLVCWLPYHVAVLLDIFSILHYIPFTCRLEHALFTALHVTQCLSLVHCCVNPVLYSFINRNYRYELMKAFIFKYSAKTGLTKLIDASRVSETEYSALEQAAK [chain 2 S360A T361A] | 1.08

Variants of: B1
Assay: BRET
Conditions: CXCL12 (100 nM), HEK293T cells, read at last time point (~56 min), read off a plot
Remark: another data set of the same source

Variant | response [fold vehicle]
chain 2 MDLHLFDYSEPGNFSDISWPCNSSDCIVVDTVMCPNMPNKSVLLYTLSFIYIFIFVIGMIANSVVVWVNIQAKTTGYDTHCYILNLAIADLWVVLTIPVWVVSLVQHNQWPMGELTCKVTHLIFSINLFGSIFFLTCMSVDRYLSITYFTNTPSSRKKMVRRVVCILVWLLAFCVSLPDTYYLKTVTSASNNETYCRSFYPEHSIKEWLIGMELVSVVLGFAVPFSIIAVFYFLLARAISASSDQEKHSSRKIIFSYVVVFLVCWLPYHVAVLLDIFSILHYIPFTCRLEHALFTALHVTQCLSLVHCCVNPVLYSFINRNYRYELMKAFIFKYSAKTGLTKLIDASRVAEAEYAALEQSTK [chain 2 S350A T352A S355A] | 1.01
chain 2 MDLHLFDYSEPGNFSDISWPCNSSDCIVVDTVMCPNMPNKSVLLYTLSFIYIFIFVIGMIANSVVVWVNIQAKTTGYDTHCYILNLAIADLWVVLTIPVWVVSLVQHNQWPMGELTCKVTHLIFSINLFGSIFFLTCMSVDRYLSITYFTNTPSSRKKMVRRVVCILVWLLAFCVSLPDTYYLKTVTSASNNETYCRSFYPEHSIKEWLIGMELVSVVLGFAVPFSIIAVFYFLLARAISASSDQEKHSSRKIIFSYVVVFLVCWLPYHVAVLLDIFSILHYIPFTCRLEHALFTALHVTQCLSLVHCCVNPVLYSFINRNYRYELMKAFIFKYSAKTGLTKLIDASRVAETEYSALEQSTK [chain 2 S350A] | 1.07
chain 2 MDLHLFDYSEPGNFSDISWPCNSSDCIVVDTVMCPNMPNKSVLLYTLSFIYIFIFVIGMIANSVVVWVNIQAKTTGYDTHCYILNLAIADLWVVLTIPVWVVSLVQHNQWPMGELTCKVTHLIFSINLFGSIFFLTCMSVDRYLSITYFTNTPSSRKKMVRRVVCILVWLLAFCVSLPDTYYLKTVTSASNNETYCRSFYPEHSIKEWLIGMELVSVVLGFAVPFSIIAVFYFLLARAISASSDQEKHSSRKIIFSYVVVFLVCWLPYHVAVLLDIFSILHYIPFTCRLEHALFTALHVTQCLSLVHCCVNPVLYSFINRNYRYELMKAFIFKYSAKTGLTKLIDASRVSETEYAALEQSTK [chain 2 S355A] | 1.03
chain 2 MDLHLFDYSEPGNFSDISWPCNSSDCIVVDTVMCPNMPNKSVLLYTLSFIYIFIFVIGMIANSVVVWVNIQAKTTGYDTHCYILNLAIADLWVVLTIPVWVVSLVQHNQWPMGELTCKVTHLIFSINLFGSIFFLTCMSVDRYLSITYFTNTPSSRKKMVRRVVCILVWLLAFCVSLPDTYYLKTVTSASNNETYCRSFYPEHSIKEWLIGMELVSVVLGFAVPFSIIAVFYFLLARAISASSDQEKHSSRKIIFSYVVVFLVCWLPYHVAVLLDIFSILHYIPFTCRLEHALFTALHVTQCLSLVHCCVNPVLYSFINRNYRYELMKAFIFKYSAKTGLTKLIDASRVSEAEYSALEQSTK [chain 2 T352A] | 1
